Data on eight variants can be found in IntAct's records for PubMed 31515488.

Sequences and labels used below:
B1: ADP-ribosylation factor-like protein 2 (Homo sapiens), P36404 (parent)
chain: MGLLTILKKMKQKERELRLLMLGLDNAGKTTILKKFNGEDIDTISPTLGFNIKTLEHRGFKLNIWDVGGQKSLRSYWRNYFESTDGLIWVVDSADRQRMQDCQRELQSLLVEERLAGATLLIFANKQDLPGALSSNAIREVLELDSIRSHHWCIQGCSAVTGENLLPGIDWLLDDISSRIFTAD
partner: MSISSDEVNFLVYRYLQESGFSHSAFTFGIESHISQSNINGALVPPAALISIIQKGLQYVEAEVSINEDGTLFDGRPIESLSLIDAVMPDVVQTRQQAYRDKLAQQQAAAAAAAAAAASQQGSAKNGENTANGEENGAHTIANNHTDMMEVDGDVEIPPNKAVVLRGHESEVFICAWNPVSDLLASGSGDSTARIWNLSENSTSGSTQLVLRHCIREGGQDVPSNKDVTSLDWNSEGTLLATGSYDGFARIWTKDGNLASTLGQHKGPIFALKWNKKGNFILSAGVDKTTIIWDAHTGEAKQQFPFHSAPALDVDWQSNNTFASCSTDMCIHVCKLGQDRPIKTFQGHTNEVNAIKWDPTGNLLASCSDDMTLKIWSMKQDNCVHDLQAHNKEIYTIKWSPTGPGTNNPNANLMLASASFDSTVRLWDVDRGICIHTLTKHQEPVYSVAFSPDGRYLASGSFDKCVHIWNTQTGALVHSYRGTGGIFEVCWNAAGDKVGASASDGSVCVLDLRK
B2: PHD finger protein 21A (Homo sapiens), Q96BD5 (parent)
chain: MELQTLQEALKVEIQVHQKLVAQMKQDPQNADLKKQLHELQAKITALSEKQKRVVEQLRKNLIVKQEQPDKFQIQPLPQSENKLQTAQQQPLQQLQQQQQYHHHHAQQSAAASPNLTASQKTVTTASMITTKTLPLVLKAATATMPASVVGQRPTIAMVTAINSQKAVLSTDVQNTPVNLQTSSKVTGPGAEAVQIVAKNTVTLVQATPPQPIKVPQFIPPPRLTPRPNFLPQVRPKPVAQNNIPIAPAPPPMLAAPQLIQRPVMLTKFTPTTLPTSQNSIHPVRVVNGQTATIAKTFPMAQLTSIVIATPGTRLAGPQTVQLSKPSLEKQTVKSHTETDEKQTESRTITPPAAPKPKREENPQKLAFMVSLGLVTHDHLEEIQSKRQERKRRTTANPVYSGAVFEPERKKSAVTYLNSTMHPGTRKRGRPPKYNAVLGFGALTPTSPQSSHPDSPENEKTETTFTFPAPVQPVSLPSPTSTDGDIHEDFCSVCRKSGQLLMCDTCSRVYHLDCLDPPLKTIPKGMWICPRCQDQMLKKEEAIPWPGTLAIVHSYIAYKAAKEEEKQKLLKWSSDLKQEREQLEQKVKQLSNSISKCMEMKNTILARQKEMHSSLEKVKQLIRLIHGIDLSKPVDSEATVGAISNGPDCTPPANAATSTPAPSPSSQSCTANCNQGEETK
B3: Zinc finger protein SNAI1 (Homo sapiens), O95863 (parent)
chain: MPRSFLVRKPSDPNRKPNYSELQDSNPEFTFQQPYDQAHLLAAIPPPEILNPTASLPMLIWDSVLAPQAQPIAWASLRLQESPRVAELTSLSDEDSGKGSQPPSPPSPAPSSFSSTSVSSLEAEAYAAFPGLGQVPKQLAQLSEAKDLQARKAFNCKYCNKEYLSLGALKMHIRSHTLPCVCGTCGKAFSRPWLLQGHVRTHTGEKPFSCPHCSRAFADRSNLRAHLQTHSDVKKYQCQACARTFSRMSLLHKHQESGCSGCPR
partner: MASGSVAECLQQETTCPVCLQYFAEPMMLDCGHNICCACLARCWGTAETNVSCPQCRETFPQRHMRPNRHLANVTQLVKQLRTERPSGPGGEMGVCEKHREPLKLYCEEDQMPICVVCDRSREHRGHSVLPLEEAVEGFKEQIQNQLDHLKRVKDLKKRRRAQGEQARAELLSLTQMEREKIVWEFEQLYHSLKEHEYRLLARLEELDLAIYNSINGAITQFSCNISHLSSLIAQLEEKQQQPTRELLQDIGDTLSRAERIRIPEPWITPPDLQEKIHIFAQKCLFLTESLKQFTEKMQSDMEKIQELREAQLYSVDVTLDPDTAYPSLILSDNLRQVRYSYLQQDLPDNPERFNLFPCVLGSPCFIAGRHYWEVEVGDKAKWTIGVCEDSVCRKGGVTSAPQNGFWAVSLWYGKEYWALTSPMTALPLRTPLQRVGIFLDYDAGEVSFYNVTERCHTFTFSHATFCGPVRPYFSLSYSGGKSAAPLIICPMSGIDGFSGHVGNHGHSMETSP
B4: RAC-alpha serine/threonine-protein kinase (Homo sapiens), P31749-1 (parent)
chain: MSDVAIVKEGWLHKRGEYIKTWRPRYFLLKNDGTFIGYKERPQDVDQREAPLNNFSVAQCQLMKTERPRPNTFIIRCLQWTTVIERTFHVETPEEREEWTTAIQTVADGLKKQEEEEMDFRSGSPSDNSGAEEMEVSLAKPKHRVTMNEFEYLKLLGKGTFGKVILVKEKATGRYYAMKILKKEVIVAKDEVAHTLTENRVLQNSRHPFLTALKYSFQTHDRLCFVMEYANGGELFFHLSRERVFSEDRARFYGAEIVSALDYLHSEKNVVYRDLKLENLMLDKDGHIKITDFGLCKEGIKDGATMKTFCGTPEYLAPEVLEDNDYGRAVDWWGLGVVMYEMMCGRLPFYNQDHEKLFELILMEEIRFPRTLGPEAKSLLSGLLKKDPKQRLGGGSEDAKEIMQHRFFAGIVWQHVYEKKLSPPFKPQVTSETDTRYFDEEFTAQMITITPPDQDDSMECVDSERRPHFPQFSYSASGTA

One test covers variants of B1. The conditions noted are these: with tbl1r_human TBL1XR1, Q9BZK7.
R139C: the “effect of a mutation on the interaction” value is “with no effect”.

Variants of B2 are the subject of the next test. The conditions noted are these: with nup62_human NUP62, P37198.
For R347H, the “effect of a mutation on the interaction” value is on record as “with no effect”.

Variants of B2 are the subject of the next test. The conditions noted are these: with fhl3_human FHL3, Q13643.
In the case of R347H, the “effect of a mutation on the interaction” value is recorded as “with no effect”.

The next test covers variants of B2. Particulars: with traf1_human TRAF1, Q13077.
On to R347H, for which the “effect of a mutation on the interaction” value is “with no effect”.

Variants of B3 are the subject of the next test. The conditions noted are these: with tri27_human TRIM27, P14373.
For the variant V118A, the “effect of a mutation on the interaction” value is reported as “with no effect”.

The variants in a further test derive from B4. Particulars: with tcl1a_human TCL1A.
On to L52R, for which the “effect of a mutation on the interaction” value is listed as “disrupting interaction strength”.

On to E17K, for which the “effect of a mutation on the interaction” value is listed as “disrupting interaction strength”.

On to E49K, for which the “effect of a mutation on the interaction” value is listed as “with no effect”.

For Q79K, the “effect of a mutation on the interaction” value was “disrupting interaction strength”.

Regarding F35L, the “effect of a mutation on the interaction” value is reported as “with no effect”.
